For the assay, the target named is Metallo-beta-lactamase type 2 (Bacteria) (UniProt C7C422). As to the kind of experiment: Inhibition of bacterial metallo-beta-lactamase NDM-1 preincubated for 5 mins followed by imipenem addition by spectrophotometer analysis. Summed up: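 Purified NDM-1 (10 nM) in 50 mM HEPES pH 7.2 with 100 μM ZnCl2, 2.5% DMSO and 400 μg ml−1 BSA, preincubated with inhibitor (twelve concentrations, 0–800 μM) at 25 °C for 5 min. Reaction started with 100 μM imipenem and absorbance read at 300 nm. Triplicates; IC50 from initial velocities by log[inhibitor] vs. response fit.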

Amino acid sequences for entries named in this document (tags omitted). A change or cut given only in a name is not applied to a line headed by its entry.
UniProt C7C422: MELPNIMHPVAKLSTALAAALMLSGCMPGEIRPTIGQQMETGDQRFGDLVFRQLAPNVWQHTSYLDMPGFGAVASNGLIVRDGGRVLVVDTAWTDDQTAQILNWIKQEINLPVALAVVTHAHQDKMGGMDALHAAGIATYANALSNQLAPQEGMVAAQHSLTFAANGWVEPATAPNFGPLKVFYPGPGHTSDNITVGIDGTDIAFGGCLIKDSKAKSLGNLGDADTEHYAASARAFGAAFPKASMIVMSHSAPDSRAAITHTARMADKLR

The source made the active and inactive calls. No cut-off for these calls is given here.

Turning to `Cl.O=C(NC(C1CCCCN1)P(=O)(O)O)c1ccsc1` (stereo not drawn), the inhibition result was “inactive”.
For the molecule `Cl.O=C(Cc1ccsc1)NC(C1CCCCN1)P(=O)(O)O` (stereo not drawn), the inhibition entry was “inactive”.
In the case of `Cl.O=C(NC(C1CCCCN1)P(=O)(O)O)c1cccs1` (stereo not drawn), the inhibition result was “inactive”.

The values above are taken from ChEMBL document CHEMBL5329219, “α-Aminophosphonate inhibitors of metallo-β-lactamases NDM-1 and VIM-2” (RSC Med Chem, 2023).
